Reference: US20110008345A1

Key:
Experiment in all cases: cell-based or functional assay
[1] = target: recombinant E. coli-expressed human IL-13 (human) (UniProt P35225)
[2] = target: EGFR expressed on the surface of A431 cells (UniProt P00533)
[3] = target: recombinant human TNF-alpha (human) (UniProt P01375)

| Substance | EC50 (IL-13 cell-based neutralisation assay, HEK Blue-STAT6) [1] [nM] | Anti-EGFR potency (EGFR kinase assay) [2] [nM] | potency (MRC-5/TNF assay, IL-8 secretion) [3] [nM] | Anti-EGFR potency (EGFR kinase assay, A431 cells) [2] [nM] |
| --- | --- | --- | --- | --- |
| DMS4029 (anti-EGFR/anti-IL-13 mAbdAb) (bispecific antibody) | 1.65 | 9.03 |  |  |
| dual targeting anti-TNF/anti-EGFR mAbdAb (Example 10) (bispecific antibody) |  |  | 0.003 | 39.1 |
